According to patent publication US3965109A, “Certain aryl amino pyridines” (priority 1971, dated 1976):

Tests used:
Type in all cases: in vivo
[1] = tested on: Musca domestica (houseflies); experiment: Pest toxicity test, contact test; conditions: 0.1% by weight; milk/sugar; 2 days; flies sprayed directly
[2] = tested on: Aedes aegypti (mosquito larvae); experiment: Pest toxicity test; conditions: 0.01% by weight; water; 1 day
Megoura viceae = experiment: Pest toxicity test; conditions: 0.1% by weight; broad bean; 2 days
[3] = tested on: Pieris brassicae (cabbage white caterpillars); experiment: Pest toxicity test; conditions: 0.1% by weight, 2 days
[4] = tested on: Phaedon cochleariae (mustard beetles); experiment: Pest toxicity test; conditions: 0.1% by weight; mustard/paper; 2 days
[5] = tested on: Plutella maculipennis (diamond back moth larvae); experiment: Pest toxicity test; conditions: 0.1% by weight; mustard/paper; 2 days
[6] = tested on: Tetranychus telarius (red spider mites, adults); experiment: Pest toxicity test; conditions: 0.1% by weight; French bean; 3 days
[7] = tested on: Tetranychus telarius (red spider mites, eggs); experiment: Pest toxicity test; conditions: 0.1% by weight; French bean; 3 days
Aphis fabae = experiment: Pest toxicity test; conditions: 0.1% by weight; broad bean; 2 days
[8] = tested on: Meloidogyne incognita (nematodes); experiment: Pest toxicity test; conditions: 0.01% by weight; water; 1 day
[9] = tested on: Aedes aegypti (mosquito adults); experiment: Pest toxicity test; conditions: 0.01% by weight; plywood; 1 day

O=[N+]([O-])c1cc([N+](=O)[O-])c(Nc2c(Cl)c(F)nc(F)c2Cl)c([N+](=O)[O-])c1
Mortality grading (kill), contact test [1]: 0 (O represents less than 30% kill) | Mortality grading (kill) [2]: 0 (O represents less than 30% kill) | Mortality grading (kill) (Megoura viceae): 3 (3 represents over 90% kill) | Mortality grading (kill) [3]: 0 (O represents less than 30% kill) | Mortality grading (kill) [4]: 0 (O represents less than 30% kill) | Mortality grading (kill) [5]: 0 (O represents less than 30% kill) | Mortality grading (kill) [6]: 3 (3 represents over 90% kill) | Mortality grading (kill) [7]: 3 (3 represents over 90% kill) | Mortality grading (kill) (Aphis fabae): 3 (3 represents over 90% kill) | Mortality grading (kill) [8]: 2 (2 represents 60 - 90% kill) | Mortality grading (kill) [9]: 0 (O represents less than 30% kill)
